Results as given in patent publication EP0054873A1, “3,4-Di-substituted 1,2,5-oxadiazole-2 oxides, method for their preparation and pharmaceutical compositions containing them” (CASSELLA Aktiengesellschaft, priority 1980, dated 1982).

System: Bastardhunden
Test: Haemodynamic study of antianginal and antihypertensive effect in anaesthetised mongrel dogs
Type: in vivo
Settings: Dosis 0,05 mg/kg i.v., change from steady state

What does the source list for `O=[N+]([O-])O[C@H]1CO[C@H]2[C@@H]1OC[C@H]2O[N+](=O)[O-]`?
BDm Δ (mittlerer peripherer Blutdruck): -19 mmHg; LVEDP Δ (linksventrikulärer enddiastolischer Druck): -2,1 mm/Hg; PAP Δ (mittlerer Pulmonalarteriendruck): -0,7 mmHg
